Results reported in article PMC3830718 (Toxicology and applied pharmacology, 2013).

Sequences of proteins named here, by UniProt entry; tags and fusion partners are left off. A change or cut given only in a name is not applied to a line headed by its entry.
UniProt Q96FL8: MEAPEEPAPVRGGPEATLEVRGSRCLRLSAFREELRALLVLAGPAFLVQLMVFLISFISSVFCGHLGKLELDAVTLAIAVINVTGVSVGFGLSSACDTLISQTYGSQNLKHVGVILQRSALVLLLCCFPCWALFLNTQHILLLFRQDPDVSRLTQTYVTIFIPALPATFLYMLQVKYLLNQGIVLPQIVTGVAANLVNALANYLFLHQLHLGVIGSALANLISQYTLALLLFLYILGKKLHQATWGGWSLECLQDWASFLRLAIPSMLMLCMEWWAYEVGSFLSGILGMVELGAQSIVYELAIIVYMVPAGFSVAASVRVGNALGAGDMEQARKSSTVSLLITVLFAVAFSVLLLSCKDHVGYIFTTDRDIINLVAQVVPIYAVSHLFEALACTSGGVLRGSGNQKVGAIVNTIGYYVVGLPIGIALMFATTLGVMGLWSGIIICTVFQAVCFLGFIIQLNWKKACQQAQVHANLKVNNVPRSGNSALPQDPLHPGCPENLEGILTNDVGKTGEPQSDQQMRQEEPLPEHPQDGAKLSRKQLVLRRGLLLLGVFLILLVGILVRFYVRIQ

Experiments:
human MATE2-K (hMATE2-K) = biological target: T1, human MATE2-K (hMATE2-K) (Homo sapiens, UniProt Q86VL8); test: Inhibition of metformin accumulation in HEK-293 cells stably expressing hMATE2-K; type: cell-based
T1 sequence (Q86VL8 1-566 isoform Q86VL8-3): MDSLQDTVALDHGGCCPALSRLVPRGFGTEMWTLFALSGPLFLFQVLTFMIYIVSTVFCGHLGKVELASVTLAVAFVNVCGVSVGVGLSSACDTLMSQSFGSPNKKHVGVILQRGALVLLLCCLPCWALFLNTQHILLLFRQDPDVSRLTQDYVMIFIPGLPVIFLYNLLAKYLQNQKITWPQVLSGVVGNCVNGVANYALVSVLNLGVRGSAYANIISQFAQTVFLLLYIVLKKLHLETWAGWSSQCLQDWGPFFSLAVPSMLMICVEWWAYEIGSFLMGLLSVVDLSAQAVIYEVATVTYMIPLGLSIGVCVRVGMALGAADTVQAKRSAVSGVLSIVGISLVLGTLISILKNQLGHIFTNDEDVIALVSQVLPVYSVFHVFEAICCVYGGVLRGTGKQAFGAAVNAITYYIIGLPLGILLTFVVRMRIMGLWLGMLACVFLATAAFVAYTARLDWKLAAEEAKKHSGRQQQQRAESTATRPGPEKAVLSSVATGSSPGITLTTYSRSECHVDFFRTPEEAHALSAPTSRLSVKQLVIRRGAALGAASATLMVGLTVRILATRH

human MATE1 (hMATE1) = human MATE1 (hMATE1) (Homo sapiens, UniProt Q96FL8); test: Inhibition of metformin accumulation in HEK-293 cells stably expressing hMATE1; type: cell-based

Ki (human MATE2-K (hMATE2-K)): 15 nM
Ki (human MATE1 (hMATE1)): 35 nM
Compound: Cc1nccn1CC1CCc2c(c3ccccc3n2C)C1=O (centres unmarked) [ondansetron]
